The record followed here is article PMC6520365, “Structural and functional characterization of the PDZ domain of the human phosphatase PTPN3 and its interaction with the human papillomavirus E6 oncoprotein” (Scientific Reports, 2019).

By UniProt entry, the sequences of proteins in these tests, tags left out. Residues count along the entry.
UniProt P26045, 489-913: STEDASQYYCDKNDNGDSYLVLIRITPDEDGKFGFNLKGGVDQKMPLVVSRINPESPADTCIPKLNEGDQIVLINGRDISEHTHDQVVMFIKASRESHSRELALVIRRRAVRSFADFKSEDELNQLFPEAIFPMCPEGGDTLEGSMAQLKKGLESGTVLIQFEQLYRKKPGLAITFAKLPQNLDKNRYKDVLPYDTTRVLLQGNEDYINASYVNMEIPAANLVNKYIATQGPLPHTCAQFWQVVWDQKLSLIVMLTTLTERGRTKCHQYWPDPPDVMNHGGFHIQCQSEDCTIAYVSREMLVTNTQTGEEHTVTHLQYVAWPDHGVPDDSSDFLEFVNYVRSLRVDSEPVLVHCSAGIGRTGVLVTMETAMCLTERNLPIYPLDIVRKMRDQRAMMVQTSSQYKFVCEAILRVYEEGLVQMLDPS

The experiment concerns the target PTPN3-PDZ_(Next), PDZ domain of human PTPN3 extended at the N-terminus by 15 residues of its wild-type upstream sequence (human) (UniProt P26045). As to the kind of experiment: AUC; sedimentation velocity, PTPN3-PDZ_(Next) at 70 μM with PBM peptide, 20 °C, 42000 rpm.

Broadly, the stoichiometry N is a count of units in the complex or per binding partner. “HPV18E6 PBM peptide (C-terminal sequence of the human papillomavirus type 18 E6 protein)” returned a stoichiometry N of 1.
